## Measured affinities in a library of Ab-14 heavy chain variants

Data: MIT Lincoln Laboratory AlphaSeq set, Li et al. 2023, doi:10.1038/s41467-023-39022-2, as distributed in FLAb.

Target peptide (SARS-CoV-2 spike, HR2 region): PDVDLGDISGINAS

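Phage display of a naive human antibody library on the peptide gave the parent. The variants were designed computationally from a first round of random CDR variants and then made and measured. Their group label is 14H_En_Gibbs (En: ensemble of fine-tuned language models; Gibbs: Gibbs sampling). Affinity was read by AlphaSeq, a pooled yeast mating assay with surface-displayed partners. Pairs that bind mate more often; barcode pairs of the diploids are counted by sequencing. The ratio of observed to expected reads was calibrated, replicate by replicate, on BCL2-family standards whose Kd was known from biolayer interferometry. Each pool was mated in six replicate cultures.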

Ab-14 is the parent antibody, in scFv form: VH, then a 15-residue (Gly4Ser)3 linker, then VL. The light chain is unchanged in all variants.
VH: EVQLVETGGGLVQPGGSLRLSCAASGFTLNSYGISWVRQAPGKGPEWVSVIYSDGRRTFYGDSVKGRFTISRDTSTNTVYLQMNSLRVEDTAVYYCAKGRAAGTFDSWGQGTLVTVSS
VL: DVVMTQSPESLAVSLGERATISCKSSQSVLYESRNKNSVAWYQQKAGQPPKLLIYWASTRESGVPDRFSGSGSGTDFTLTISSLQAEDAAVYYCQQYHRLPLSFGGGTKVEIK

The parent's heavy chain CDRs are GFTLNSYGIS, VIYSDGRRTFYGDSVK, GRAAGTFDS; each variant's own CDRs replace them letter for letter. The read-out is the apparent dissociation constant on a log10 scale (nM): the lower, the stronger. Replicates are averaged; those with no signal do not enter the mean. "ND" marks a missing value. The strain was present, yet no cells mated with the target were sequenced in that replicate, which points to weak or no binding. A sequence measured in both rounds can read differently, since the two assays cover different ranges. The parent sequence was in this pool as ten entries: three were never detected, three once, and four in most replicates, with averages from 0.34 to 2.37. Three control strains display no target. For all heavy chain designs, 1% of the pairings with them gave a signal, with a median of 2.08 and one signal in twenty below 0.84, so weak values seen in few replicates may be background. For each scFv, signals with the empty controls are counted beside the result, with their mean in brackets. The authors averaged sequences with at least three values out of six and counted those with two or fewer as poor binders.

CDR-H1	CDR-H2	CDR-H3	log10 Kd (nM) by replicate	mean, log10 nM	signal with controls
GQNLDEYGIS	VIYADGMRKWYADSVK	GNMSAGLIA	ND / ND / ND / ND / ND / ND	ND	1/18 (2.54)
GFDINEYGIS	VIYADGRRKAYSDAVK	GIDVYGKTV	ND / ND / ND / ND / ND / ND	ND	0/18
GFVLNEYGIS	VIYADGMRTAYAEDFK	GVTGVNLHI	ND / ND / ND / ND / ND / ND	ND	0/18
GFDLQEMGIS	VIYADGARKSYTNSVK	GVFGGQMDV	ND / ND / ND / ND / ND / ND	ND	2/18 (2.80)
EDSLNEYGIS	VIYADGVRAAYADPVK	GENDGLFDQ	ND / ND / ND / ND / ND / ND	ND	0/18
GFELDEYGIS	VIYADGERTGYVDNVK	GEAGIDFHV	2.00 / 1.40 / 0.58 / 2.45 / 1.25 / 1.57	1.54	1/18 (0.95)
GFDIDEYGIS	VIYADGQRTAYKPKVK	GNNTGLVFI	ND / ND / ND / ND / ND / ND	ND	0/18
GFDLNEQGIS	VIYADGVRTEYQNRVK	GEIDGLFTF	ND / ND / ND / ND / ND / ND	ND	0/18
GFSIDEYGIS	VIYADGVRTAVDPSVK	GQMAAFFDE	ND / ND / ND / ND / ND / ND	ND	0/18
GFDLDEQGIS	VIYADGQRTAYADQVK	GMNGVIFRT	ND / ND / ND / ND / ND / ND	ND	0/18
GEDLQEYGIS	VIYADGQRQEYSDDVK	GQTAGHFLH	ND / ND / ND / ND / ND / ND	ND	0/18
GFNLDEYGIS	VIYADGVRTAYSSKVK	GKVWWFFLM	ND / ND / ND / ND / ND / ND	ND	0/18
GFDLEEYGIS	VIYADGKRAQYTDAVK	GKFLDMMTY	0.66 / 0.83 / 0.76 / 0.25 / 0.77 / 0.83	0.68	0/18
GFDINEYGIS	VIYADGQRVAYTNSFK	GTQAGQNIN	ND / 4.25 / ND / ND / ND / ND	4.25	2/18 (2.61)
GFDLGEYGIS	VIYADGRRKGYSDSVK	GRNSINVTD	ND / ND / ND / ND / ND / ND	ND	0/18
GQDLQEYGVS	VIYADGKRTAYADSVK	GKSLGLIFV	ND / ND / ND / ND / ND / ND	ND	0/18
GADLNEYGIS	VIYADGSRTVYADTVK	GKHGGIFDS	ND / ND / ND / ND / 3.12 / ND	3.12	3/18 (2.46)
EFDLNNYGIS	VIYADGLRTAYETNFK	GINAGTFTS	1.11 / ND / 1.54 / ND / ND / ND	1.33	0/18
GMDLNEYGIS	VIYADGRRTSYINQVK	GKQSVIVGH	ND / ND / ND / ND / ND / ND	ND	0/18
GQDLAEYGIS	VIYADGKRTMYANDVK	GHNDGQGVT	ND / ND / ND / ND / ND / ND	ND	0/18
GFDLDEYGIS	VIYADGTRSGYTANVK	GEAAGITMF	ND / ND / ND / ND / ND / ND	ND	0/18
GFSLDEYGIS	VIYADGVRKSYMESVK	GNGKGTLFA	ND / ND / ND / ND / ND / ND	ND	0/18
GFDLEKYGIS	VIYADGRRSVYADNVK	GMDGATGGF	ND / ND / ND / ND / ND / ND	ND	2/18 (2.39)
GFKINEYGIS	VIYADGMRRSYADSFK	GAESGYMVV	ND / ND / ND / ND / ND / ND	ND	0/18
GFDFNEYGIS	VIYADGKRTAYADNVK	GGKDAATDI	0.30 / 1.76 / ND / -0.01 / -0.34 / 1.19	0.58	0/18
GFNIDEYGIS	VIYADGVRTAYVDKVK	GFGQVLSLD	ND / ND / ND / ND / ND / 1.48	1.48	0/18
GFDLEEYGIS	VIYADGVRTSYVDQVK	GENGGAYYT	ND / ND / ND / 1.85 / ND / ND	1.85	1/18 (1.39)
GKALDEYGIS	VIYADGKRTFYSNTVK	GEDGDFYDQ	ND / ND / ND / ND / ND / ND	ND	0/18
GADIQEYGIS	VIYADGIRTAYAQNVK	GEYGSQFDI	ND / ND / ND / ND / ND / ND	ND	0/18
AFDIEDYGIS	VIYADGVRAMYVESVK	GGIAGTFEI	1.61 / 0.63 / 0.08 / 0.33 / 0.66 / 0.90	0.70	0/18
GKGLDEYGVS	VIYADGVRKSYADDVK	GGIAGTFLY	1.96 / 2.26 / 2.10 / 2.29 / 1.73 / 3.14	2.25	2/18 (2.13)
GFDLNEYGVS	VIYADGQRTYYTESVK	GKVGDLLMA	ND / ND / ND / ND / ND / ND	ND	0/18
GDDLEDYGIS	VIYADGRRTAYQESVK	GLYAGYIDV	ND / ND / ND / ND / ND / ND	ND	0/18
GKDLEEYGIS	VIYADGFRTAYKNQVK	GSGMIDTVV	ND / ND / ND / ND / ND / ND	ND	0/18
GFNLDEYGIS	VIYADGMRTAYGNAVK	GAVFGDLIS	ND / ND / ND / ND / ND / ND	ND	0/18
GKSLDEYGIS	VIYADGMRAEYQNQVK	GTTVGDFFV	ND / ND / ND / ND / ND / ND	ND	0/18
GDSLNEYGIS	VIYADGRRSVYTDKVK	GHAGGTFMS	ND / ND / ND / ND / ND / ND	ND	2/18 (1.75)
GFQLNEYGIS	VIYADGIRREYASKVK	GGINASFDV	ND / ND / ND / ND / ND / ND	ND	0/18
GFNLNEYGIS	VIYADGHRSAYVSNVK	GHLGGHFSM	ND / ND / ND / ND / ND / ND	ND	0/18
GQDLDEYGVS	VIYADGQRTQYTNDVK	GNYSGAVII	ND / ND / ND / ND / ND / ND	ND	1/18 (1.65)
GKKLDEYGIS	VIYADGKRNFYSNSVK	GQLATGLFV	ND / ND / ND / ND / ND / ND	ND	0/18
GVNLDEYGIS	VIYADGKRVHYTDKVK	GTFGDFMIV	ND / ND / ND / ND / ND / ND	ND	0/18
GFKINEYGIS	VIYADGMRRSYADSVK	GAESGYMVV	ND / ND / ND / ND / ND / ND	ND	0/18
GFDLQEIGIS	VIYADGTRQAYVEKVK	GQLAGFLVD	ND / ND / ND / ND / ND / ND	ND	0/18
GENLSEYGIS	VIYADGKKTAYSNAVK	GANGGIFNV	ND / ND / ND / ND / ND / ND	ND	1/18 (2.43)
GFSLDEYGIS	VIYADGARAAYTNDFK	GNIGDLFGK	ND / ND / ND / ND / ND / ND	ND	0/18
GESLDEYGIS	VIYADGMRTAYTDKVK	GLVAATLVD	ND / ND / ND / ND / ND / ND	ND	0/18

From the list, the first 7 with no signal in any replicate:

{"CDR-H1": "GQNLDEYGIS", "CDR-H2": "VIYADGMRKWYADSVK", "CDR-H3": "GNMSAGLIA", "log10 Kd (nM) by replicate": "ND / ND / ND / ND / ND / ND", "mean, log10 nM": "ND", "signal with controls": "1/18 (2.54)"}
{"CDR-H1": "GFDINEYGIS", "CDR-H2": "VIYADGRRKAYSDAVK", "CDR-H3": "GIDVYGKTV", "log10 Kd (nM) by replicate": "ND / ND / ND / ND / ND / ND", "mean, log10 nM": "ND", "signal with controls": "0/18"}
{"CDR-H1": "GFVLNEYGIS", "CDR-H2": "VIYADGMRTAYAEDFK", "CDR-H3": "GVTGVNLHI", "log10 Kd (nM) by replicate": "ND / ND / ND / ND / ND / ND", "mean, log10 nM": "ND", "signal with controls": "0/18"}
{"CDR-H1": "GFDLQEMGIS", "CDR-H2": "VIYADGARKSYTNSVK", "CDR-H3": "GVFGGQMDV", "log10 Kd (nM) by replicate": "ND / ND / ND / ND / ND / ND", "mean, log10 nM": "ND", "signal with controls": "2/18 (2.80)"}
{"CDR-H1": "EDSLNEYGIS", "CDR-H2": "VIYADGVRAAYADPVK", "CDR-H3": "GENDGLFDQ", "log10 Kd (nM) by replicate": "ND / ND / ND / ND / ND / ND", "mean, log10 nM": "ND", "signal with controls": "0/18"}
{"CDR-H1": "GFDIDEYGIS", "CDR-H2": "VIYADGQRTAYKPKVK", "CDR-H3": "GNNTGLVFI", "log10 Kd (nM) by replicate": "ND / ND / ND / ND / ND / ND", "mean, log10 nM": "ND", "signal with controls": "0/18"}
{"CDR-H1": "GFDLNEQGIS", "CDR-H2": "VIYADGVRTEYQNRVK", "CDR-H3": "GEIDGLFTF", "log10 Kd (nM) by replicate": "ND / ND / ND / ND / ND / ND", "mean, log10 nM": "ND", "signal with controls": "0/18"}